Results on 8 compounds are retold here after patent publication US9346803B2 (Vanderbilt University, priority 2011, dated 2016).

Sequences of proteins named here, by UniProt entry; tags and fusion partners are left off. A change or cut given only in a name is not applied to a line headed by its entry.
UniProt P42330: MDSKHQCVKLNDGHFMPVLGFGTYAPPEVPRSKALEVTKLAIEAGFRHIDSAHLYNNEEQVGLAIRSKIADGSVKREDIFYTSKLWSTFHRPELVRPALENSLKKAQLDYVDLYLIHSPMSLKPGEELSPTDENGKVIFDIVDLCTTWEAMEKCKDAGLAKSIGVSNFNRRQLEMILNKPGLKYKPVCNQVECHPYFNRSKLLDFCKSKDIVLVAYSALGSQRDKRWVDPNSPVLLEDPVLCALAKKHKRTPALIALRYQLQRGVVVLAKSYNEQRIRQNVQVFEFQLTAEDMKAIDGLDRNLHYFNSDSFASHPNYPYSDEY
UniProt P52895: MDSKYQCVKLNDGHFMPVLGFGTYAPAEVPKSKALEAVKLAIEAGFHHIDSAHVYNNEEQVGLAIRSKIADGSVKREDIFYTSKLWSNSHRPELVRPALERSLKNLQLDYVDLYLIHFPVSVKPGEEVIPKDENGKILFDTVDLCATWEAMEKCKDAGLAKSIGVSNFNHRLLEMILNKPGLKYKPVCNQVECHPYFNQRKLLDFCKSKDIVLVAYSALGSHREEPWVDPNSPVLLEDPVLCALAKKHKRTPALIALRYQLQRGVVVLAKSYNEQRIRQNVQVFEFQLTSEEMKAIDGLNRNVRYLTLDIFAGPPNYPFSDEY
UniProt Q04828: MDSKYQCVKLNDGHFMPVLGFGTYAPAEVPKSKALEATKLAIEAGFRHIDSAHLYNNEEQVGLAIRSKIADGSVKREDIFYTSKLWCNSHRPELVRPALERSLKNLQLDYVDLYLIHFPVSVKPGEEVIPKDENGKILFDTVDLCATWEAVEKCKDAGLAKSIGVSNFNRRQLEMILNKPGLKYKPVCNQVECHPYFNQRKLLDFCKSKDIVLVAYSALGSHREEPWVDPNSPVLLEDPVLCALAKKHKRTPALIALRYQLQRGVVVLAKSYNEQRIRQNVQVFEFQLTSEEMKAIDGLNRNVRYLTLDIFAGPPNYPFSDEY
UniProt P17516: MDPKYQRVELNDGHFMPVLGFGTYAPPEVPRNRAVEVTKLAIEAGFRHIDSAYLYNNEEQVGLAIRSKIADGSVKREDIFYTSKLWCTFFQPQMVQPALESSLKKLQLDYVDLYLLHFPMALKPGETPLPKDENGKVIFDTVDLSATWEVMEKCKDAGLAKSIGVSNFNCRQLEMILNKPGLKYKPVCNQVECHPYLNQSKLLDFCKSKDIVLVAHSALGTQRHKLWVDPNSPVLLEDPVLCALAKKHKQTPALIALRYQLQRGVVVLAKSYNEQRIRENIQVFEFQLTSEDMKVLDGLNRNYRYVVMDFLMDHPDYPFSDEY

The term IC50 denotes the midpoint of a concentration-inhibition curve.

Common to all, as to type: biochemical
In assay [1] the target is homogeneous recombinant AKR1C3 (Homo sapiens (Human), UniProt P42330). Briefly: Inhibition of NADP+ dependent oxidation of S-tetralol catalyzed by AKR1C3. Particulars: S-tetralol substrate at Km.
A further assay deals with AKR1C2 (Homo sapiens (Human), UniProt P52895). Nature of the assay: Inhibition of S-tetralol oxidation, AKR1C2. Particulars: for IC50: S-tetralol substrate at Km; for fold selectivity for AKR1C3 over AKR1C2: number in parenthesis, ratio of IC50 values.
The next assay addresses AKR1C1 (Homo sapiens (Human), UniProt Q04828). Nature of the assay: Inhibition of S-tetralol oxidation, AKR1C1. Particulars: for fold selectivity for AKR1C3 over AKR1C1: number in parenthesis. From the text: Inhibitors were initially screened for an ability to block the NADP+ dependent oxidation of the artificial substrate S-tetralol catalyzed by AKR1C3. S-tetralol was used since it is also a substrate of the highly related AKR1C1 and AKR1C2 enzymes.
Initially, the ratios of IC50 values for AKR1C2 versus AKR1C3 were compared. High ratios were indicative of high selectivity for AKR1C3.
The latter assay is used to determine whether lead compounds act as AR agonists or block 5α-DHT reporter gene activity by acting as androgen receptor antagonists.

The next assay concerns the target AKR1C4 (Homo sapiens (Human), UniProt P17516). Briefly: Inhibition of S-tetralol oxidation, AKR1C4. Particulars: for fold selectivity for AKR1C3 over AKR1C4: number in parenthesis.

Regarding `COc1ccc2c(c1)c(CC(=O)O)cn2C(=O)c1ccc(Cl)cc1`, the half-maximal inhibitory concentration (IC50) in assay [1] is 0.96 µM; at AKR1C2, 100 µM.
The compound `COc1ccc2c(c1)c(CCC(=O)O)c(C)n2C(=O)c1ccc(Cl)cc1` returned a half-inhibitory concentration (IC50) against AKR1C2 of 57 µM.
For the compound `COc1ccc2c(c1)c(CC(=O)O)c(C)n2C(=O)c1ccc(C)cc1`, on AKR1C1, the “fold selectivity for AKR1C3 over AKR1C1” value is listed as over 625 fold. At AKR1C2, the 50% inhibitory concentration (IC50) was found to be 54.5 µM and the “fold selectivity for AKR1C3 over AKR1C2” value worked out at 336 fold. In addition, at AKR1C4, the “fold selectivity for AKR1C3 over AKR1C4” value was over 625 fold.
In the case of `COc1ccc2c(c1)c(CC(=O)O)c(C)n2C(=O)c1ccc(C(F)(F)F)cc1`, the 50% inhibitory concentration (IC50) in assay [1] is 0.27 µM. In addition, the “fold selectivity for AKR1C3 over AKR1C1” value at AKR1C1 is listed as over 370 fold. Besides, the “fold selectivity for AKR1C3 over AKR1C2” value at AKR1C2 was 134 fold. The “fold selectivity for AKR1C3 over AKR1C4” value on AKR1C4 is over 370 fold.
As for `COc1ccc2c(c1)c1c(n2C(=O)c2ccc(Cl)cc2)CCC(C(=O)O)C1` (stereo not drawn), the IC50 worked out at 0.16 µM in assay [1], 76.2 µM against AKR1C1 (S-tetralol substrate at Km) and 53.5 µM at AKR1C2. Further, the “fold selectivity for AKR1C3 over AKR1C1” value on AKR1C1 was 477 fold. In addition, the “fold selectivity for AKR1C3 over AKR1C2” value on AKR1C2 is given as 331 fold. At AKR1C4, the “fold selectivity for AKR1C3 over AKR1C4” value was 20 fold.
Take `COc1ccc2c(c1)c(C)c(CCC(=O)O)n2C(=O)c1ccc(Cl)cc1` [Compound 2]: the “fold selectivity for AKR1C3 over AKR1C2” value at AKR1C2 was 111 fold.
Regarding `COc1ccc2c(c1)c(CC(=O)NS(=O)(=O)C(F)(F)F)cn2C(=O)c1ccc(Cl)cc1` [drawing 36], the IC50 amounted to 0.21 µM in assay [1] and 50.1 µM against AKR1C2.
For the compound `COc1ccc2c(c1)c(C)c(CCC(=O)O)n2C(=O)c1ccc(Cl)cc1` [drawing 37], the values for the IC50 (in assay [1]; against AKR1C4 (S-tetralol substrate at Km)) were 0.13 µM and 3.51 µM, respectively. Besides, the “fold selectivity for AKR1C3 over AKR1C1” value at AKR1C1 is reported as 136 fold. Moreover, at AKR1C4, the “fold selectivity for AKR1C3 over AKR1C4” value was found to be 27 fold.
